{"source": "patent US20140106421A1", "about": "“Methods Of Producing Carboxylic Acids And/Or Alcohols” (Industrial Technology Research Institute, priority 2012, published 2014)", "key": {"[1]": {"assay": "Extraction of butyric acid from CGM medium with TBP in oleyl alcohol (Example 1.3)", "details": "24 hours, 37° C."}, "[2]": {"system": "PVA-immobilized clostridium tyrobutyricum", "assay": "Extractive fermentation-column reactor, 1 M TOPO or TBP in oleyl alcohol (Example 4C)", "type": "cell-based", "details": "1 M extractant in oleyl alcohol as organic phase; 37° C., 100 hours"}}}
{"smiles": "CCCCOP(=O)(OCCCC)OCCCC", "values": [{"measurement": "butyric acid distribution ratio", "setting": "[1]; TBP 0.1 M in oleyl alcohol, butyric acid 1%, pH 4", "value": 1.77}, {"measurement": "butyric acid distribution ratio", "setting": "[1]; TBP 0.1 M in oleyl alcohol, butyric acid 1%, pH 5", "value": 0.51}, {"measurement": "butyric acid distribution ratio", "setting": "[1]; TBP 0.1 M in oleyl alcohol, butyric acid 1%, pH 6", "value": 0.05}, {"measurement": "butyric acid distribution ratio", "setting": "[1]; TBP 0.1 M in oleyl alcohol, butyric acid 2%, pH 4", "value": 2.34}, {"measurement": "butyric acid distribution ratio", "setting": "[1]; TBP 0.1 M in oleyl alcohol, butyric acid 2%, pH 5", "value": 0.51}, {"measurement": "butyric acid distribution ratio", "setting": "[1]; TBP 0.1 M in oleyl alcohol, butyric acid 2%, pH 6", "value": 0.05}, {"measurement": "butyric acid distribution ratio", "setting": "[1]; TBP 0.1 M in oleyl alcohol, butyric acid 3%, pH 4", "value": 2.31}, {"measurement": "butyric acid distribution ratio", "setting": "[1]; TBP 0.1 M in oleyl alcohol, butyric acid 3%, pH 5", "value": 0.44}, {"measurement": "butyric acid distribution ratio", "setting": "[1]; TBP 0.1 M in oleyl alcohol, butyric acid 3%, pH 6", "value": 0.04}, {"measurement": "butyric acid distribution ratio", "setting": "[1]; TBP 0.5 M in oleyl alcohol, butyric acid 1%, pH 4", "value": 2.04}, {"measurement": "butyric acid distribution ratio", "setting": "[1]; TBP 0.5 M in oleyl alcohol, butyric acid 1%, pH 5", "value": 0.55}, {"measurement": "butyric acid distribution ratio", "setting": "[1]; TBP 0.5 M in oleyl alcohol, butyric acid 1%, pH 6", "value": 0.10}, {"measurement": "butyric acid distribution ratio", "setting": "[1]; TBP 0.5 M in oleyl alcohol, butyric acid 2%, pH 4", "value": 2.75}, {"measurement": "butyric acid distribution ratio", "setting": "[1]; TBP 0.5 M in oleyl alcohol, butyric acid 2%, pH 5", "value": 0.56}, {"measurement": "butyric acid distribution ratio", "setting": "[1]; TBP 0.5 M in oleyl alcohol, butyric acid 2%, pH 6", "value": 0.05}, {"measurement": "butyric acid distribution ratio", "setting": "[1]; TBP 0.5 M in oleyl alcohol, butyric acid 3%, pH 4", "value": 2.64}, {"measurement": "butyric acid distribution ratio", "setting": "[1]; TBP 0.5 M in oleyl alcohol, butyric acid 3%, pH 5", "value": 0.46}, {"measurement": "butyric acid distribution ratio", "setting": "[1]; TBP 0.5 M in oleyl alcohol, butyric acid 3%, pH 6", "value": 0.05}, {"measurement": "butyric acid distribution ratio", "setting": "[1]; TBP 1 M in oleyl alcohol, butyric acid 1%, pH 4", "value": 2.57}, {"measurement": "butyric acid distribution ratio", "setting": "[1]; TBP 1 M in oleyl alcohol, butyric acid 1%, pH 5", "value": 0.62}, {"measurement": "butyric acid distribution ratio", "setting": "[1]; TBP 1 M in oleyl alcohol, butyric acid 1%, pH 6", "value": 0.08}, {"measurement": "butyric acid distribution ratio", "setting": "[1]; TBP 1 M in oleyl alcohol, butyric acid 2%, pH 4", "value": 3.47}, {"measurement": "butyric acid distribution ratio", "setting": "[1]; TBP 1 M in oleyl alcohol, butyric acid 2%, pH 5", "value": 0.61}, {"measurement": "butyric acid distribution ratio", "setting": "[1]; TBP 1 M in oleyl alcohol, butyric acid 2%, pH 6", "value": 0.07}, {"measurement": "butyric acid distribution ratio", "setting": "[1]; TBP 1 M in oleyl alcohol, butyric acid 3%, pH 4", "value": 3.20}, {"measurement": "butyric acid distribution ratio", "setting": "[1]; TBP 1 M in oleyl alcohol, butyric acid 3%, pH 5", "value": 0.50}, {"measurement": "butyric acid distribution ratio", "setting": "[1]; TBP 1 M in oleyl alcohol, butyric acid 3%, pH 6", "value": 0.05}, {"measurement": "Cells growth (Δ OD600)", "setting": "[2]", "value": 0}]}
